Values of other authors in patent publication US7945392B2, “Methods and systems for drug screening and computational modeling based on biologically realistic neurons” (McLean Hospital Corporation, priority 2005, dated 2011).

Conditions: reasonable value, from Tran et al. 2000; cited from earlier work

Compound: Cc1cc2c(s1)Nc1ccccc1N=C2N1CCN(C)CC1 [olanzapine]
- free concentration (corrected for binding to plasma proteins): 27 nM
